Experimental data published in patent publication US10933032B2, “Methods for the treatment of cancer using coenzyme Q10 combination therapies” (Berg LLC, priority 2013, dated 2021).

How the values were obtained:
[1] = system: MDA-MB231 breast cancer cells; assay: Number of viable cells; settings: MB231 TNBC; chemotherapeutic agent with CoQ10
[2] = system: SKOV3 ovarian cancer cells; assay: Viable cell numbers, cotreatment or pretreatment with CoQ10
MCF-7 Breast = assay: as above
[3] = system: SK-Br3 breast cancer cells; assay: In vitro cell viability / viable cell number; assay type: cell-based, Human; settings: SkBr-3 Breast; chemotherapeutic agent with CoQ10
Method: Cell lines (e.g., MIAPaCa-2, Hep3B, and/or SK-Br3) cell lines were maintained in culture using standard culture conditions for each cell line. Cells were treated with CoQ10 or the indicated chemotherapeutic agents at the indicated concentrations for the indicated times. After the predetermined incubation time, the cells were stained to distinguish between viable and non-viable cells using routine methods. Cells were counted by microscopy or flow cytometry. The number of cells after treatment were normalized to the number of cells in the untreated sample.
Specifically, to assess the efficacy of CoQ10 in combination with gemcitabine in vitro, MIAPaCa-2 pancreatic carcinoma cells were maintained in culture and exposed to increasing concentrations of gemcitabine in combination with CoQ10, the 4% CoQ10 intravenous formulation, or the excipient of the CoQ10 intravenous formulation. […] The combination treatment with gemcitabine and the 4% CoQ10 intravenous formulation results in an increase in cell death as compared to gemcitabine treatment alone.
To assess the efficacy of CoQ10 in combination with doxorubicin in vitro, MIAPaCa-2 pancreatic carcinoma cells were maintained in culture and exposed to increasing concentrations of gemcitabine in combination with CoQ10, the 4% CoQ10 intravenous formulation, or the excipient of the CoQ10 intravenous formulation. […]

Measured: Cell/chemotherapeutic agent combinations that significantly reduced viable cell numbers

4-Hydroxy-cyclophosphamide
Co: all assays above
